Experimental findings from patent publication US20250214977A1, “STAT6 INHIBITORS AND USES THEREOF” (Kymera Therapeutics, Inc., priority 2024, published 2025) are described below.

By UniProt entry, the sequences of proteins in these tests, tags left out. Residues count along the entry.
UniProt P42226, 123-632 limits assumed: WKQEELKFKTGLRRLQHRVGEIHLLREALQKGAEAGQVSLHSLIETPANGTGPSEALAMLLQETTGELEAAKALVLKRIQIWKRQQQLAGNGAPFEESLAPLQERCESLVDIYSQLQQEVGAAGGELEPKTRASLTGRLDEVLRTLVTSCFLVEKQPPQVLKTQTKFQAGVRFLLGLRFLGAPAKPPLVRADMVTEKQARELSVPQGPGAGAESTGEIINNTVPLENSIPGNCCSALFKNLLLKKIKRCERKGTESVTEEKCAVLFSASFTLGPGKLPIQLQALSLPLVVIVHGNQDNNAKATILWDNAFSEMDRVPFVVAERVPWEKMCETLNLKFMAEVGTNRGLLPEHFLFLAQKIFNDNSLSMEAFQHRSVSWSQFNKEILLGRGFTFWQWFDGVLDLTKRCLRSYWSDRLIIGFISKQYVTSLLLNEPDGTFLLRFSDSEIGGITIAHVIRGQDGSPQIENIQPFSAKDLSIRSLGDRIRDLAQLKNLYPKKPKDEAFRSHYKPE

In assay [1] the test system is Phosphorylation of STAT6 in human A549 cells. Nature of the assay: Phosphorylated STAT6 (pSTAT6) flow cytometry assay in human A549 cells. The note with it: read-out: STAT6 IL4 pSTAT6 assay in A549 cells: Average IC50. An excerpt: Example 3. Phosphorylated STAT6 (pSTAT6) Flow Cytometry Assay in Human A549 Cells
Phosphorylation of STAT6 in human A549 cells was quantitatively measured using flow cytometry technology.
(Flow cytometry measures light scatter and fluorescence of single cells or particles in a stream.)

Assay [2] deals with biotinylated truncated STAT6 (123-632)-avi (Homo sapiens, UniProt P42226). Nature of the assay: Homogenous Time-Resolved Fluorescence (HTRF) binding assay. The following applies: read-out: STAT6 HTRF: Average IC50; 0.15 nM biotinylated truncated STAT6 (123-632)-avi, 20 nM fluorescein-labeled probe, 30 minutes at room temperature. How it is done:
Example 1. Homogenous Time-Resolved Fluorescence (HTRF) Binding Assay
HTRF binding assays were performed using 0.15 nM biotinylated truncated STAT6 (123-632)-avi purified from E. coli, 1× Streptavidin-terbium (CisBio) prepared by mixing SA-Tb in PPI detection buffer (CisBio), 20 nM proprietary fluorescein-labeled probe, and test compounds in assay buffer consisting of 50 mM HEPES-Na pH 7.5, 100 mM NaCl, 1 mM EDTA, 2 mM DTT, 0.1% Tween-20 with a final volume of 20 uL. Compound stocks were dissolved at 10 mM in 100% DMSO and 11 point titration with 3 fold serial dilution was performed in white, opaque 384 well microplates. Reaction plates were incubated at room temperature for 30 minutes. Plates were centrifuged at low rpm for 5 mins, and the ratio of fluorescence intensities were measured at emission wavelengths for fluorescein acceptor (520 nm) and terbium donor (495 nm) on Envision Plate reader. % Inhibition was calculated from the 520/495 ratio generated by using proprietary positive control compound for 100% inhibition and DMSO only reactions for 0% inhibition. Data was processed and dose response curves were generated using GraphPad Prism to determine the concentration required for inhibiting 50% of the HTRF signal (IC50).
A general note: TR-FRET usually uses a lanthanide donor and a delayed reading to cut background.

By IC50 is commonly meant the concentration needed to halve the response being measured. Turning to `COC[C@H]1CN(C(=O)c2cc3c(-c4ccccc4OC)cc(C4=CCCN(C(=O)CCn5ccnn5)C4)c(F)c3[nH]2)CCO1` (single isomer, unassigned), the IC50 in assay [1] and in assay [2] was < 100 nM each time.

As to `COc1cc(F)cnc1N1CCN(C(=O)c2cc3c(-c4cnccc4C#N)cc(C4=CCCN(C(=O)CCn5ccnn5)C4)c(F)c3[nH]2)CC1`, the IC50 in assay [1] and in assay [2] was > 100000 nM throughout.

Consider `COc1cc(F)cnc1N1CCN(C(=O)c2cc3c(-c4cc(F)ccc4F)cc(C4=CCCN(C(=O)CCn5ccnn5)C4)c(F)c3[nH]2)CC1`, for which the IC50 in assay [1] and in assay [2] was < 100 nM each time.

Regarding `CCc1ccncc1-c1cc(C2=CCCN(C(=O)C(F)F)C2)c(F)c2[nH]c(C(=O)N3CCN(c4ncc(F)cc4OC)CC3)cc12`, the 50% inhibitory concentration (IC50) in assay [1] and in assay [2] was 100 to 1000 nM throughout.

For `CCc1cc(C)c(-c2cc(C3=CCCN(C(=O)CCn4ccnn4)C3)c(F)c3[nH]c(C(=O)N4Cc5cnn(CC)c5C4)cc23)cn1`, the IC50 in assay [1] and in assay [2] was < 100 nM throughout.

As to `COc1cccnc1N1CCN(C(=O)c2cc3c(-c4cccc5c4OCCO5)cc(C4=CCCN(C(=O)CCn5ccnn5)C4)c(F)c3[nH]2)CC1`, the figures for the half-inhibitory concentration (IC50) in assay [1] and in assay [2] were > 100000 nM and < 100 nM, respectively.

In the case of `COc1cc(F)cnc1N1CCN(C(=O)c2cc3c(-c4cccc(C5(C#N)CC5)c4F)cc(C4=CCCN(C(=O)CCn5ccnn5)C4)c(F)c3[nH]2)CC1`, the IC50 in assay [1] and in assay [2] was < 100 nM each time.

As to `COc1ccncc1-c1cc(C2=CCCN(C(=O)CCn3ccnn3)C2)c(F)c2[nH]c(C(=O)N3CCN(c4cccc(OC)c4F)CC3)cc12`, the IC50 in assay [1] and in assay [2] was < 100 nM throughout.

Consider `CCn1ncc2c1CN(C(=O)c1cc3c(-c4cnccc4C#N)cc(C4=CCCN(C(=O)CCn5ccnn5)C4)c(F)c3[nH]1)C2`, for which the IC50 in assay [1] and in assay [2] was < 100 nM in each case.

`CCc1cc(C)c(-c2cc(C3=CCCN(C(=O)CCn4ccnn4)C3)c(F)c3[nH]c(C(=O)N4CCN(c5nc(C)c(F)cc5OC)CC4)cc23)cn1`: the concentration for half-maximal inhibition (IC50) in assay [1] and in assay [2] was < 100 nM throughout.

`CCc1cc(C)c(-c2cc(C3=CCCN(C(=O)CCn4ccnn4)C3)c(F)c3[nH]c(C(=O)N4CCN(C5CC5)CC4)cc23)cn1`: the IC50 in assay [1] and in assay [2] was < 100 nM each time.

`CCn1ncc2c1CN(C(=O)c1cc3c(-c4nccn4C)cc(C4=CCCN(C(=O)CCn5ccnn5)C4)c(F)c3[nH]1)C2`: the IC50 in assay [1] and in assay [2] was < 100 nM throughout.

For `CCc1ncccc1-c1cc(C(=O)N2CCN(c3ncc(F)cc3OC)CC2)cc2cc(C3=CCCN(C(=O)CCn4ccnn4)C3)n(CC3CC3)c12`, the half-inhibitory concentration (IC50) in assay [1] and in assay [2] was < 100 nM in each case.

Consider `CCc1ccc(-c2cc(C(=O)N3Cc4cnn(CC)c4C3)cc3cc(C4=CCCN(C(C)=O)C4)n(CC)c23)c(C)n1`, for which the half-inhibitory concentration (IC50) in assay [1] and in assay [2] was 100 to 1000 nM in each case.

On to `COc1ccncc1-c1cc([C@H]2CCCN(C(=O)CCn3cccn3)C2)c(F)c2[nH]c(C(=O)N3CCN(c4ncccc4OC)CC3)cc12` (single isomer, unassigned), for which the half-maximal inhibitory concentration (IC50) in assay [1] and in assay [2] was < 100 nM in each case.

In the case of `COc1ccccc1-c1cc(C2=CCCN(C(=O)CCn3ccnn3)C2)c(F)c2[nH]c(C(=O)N3CCN(c4ccn5nncc5c4)CC3)cc12`, the IC50 in assay [1] and in assay [2] was < 100 nM in each case.

Regarding `COc1ccccc1-c1cc(C2=CCCN(C(=O)CCn3ccnn3)C2)c(F)c2[nH]c(C(=O)N3CCC4(CCO4)CC3)cc12`, the 50% inhibitory concentration (IC50) in assay [1] and in assay [2] was < 100 nM each time.

`COc1ccccc1-c1cc(C2=CCCN(C(=O)CCn3ccnn3)C2)c(F)c2[nH]c(C(=O)N3CCC[C@H](c4ccccc4)C3)cc12` (single isomer, unassigned): the IC50 in assay [1] and in assay [2] was 100 to 1000 nM each time.

On to `COc1ccccc1-c1cc(C2=CCCN(C(=O)CCn3ccnn3)C2)c(F)c2[nH]c(C(=O)N3CCN(c4nc(C)ccc4OC)CC3)cc12`, for which the IC50 in assay [1] and in assay [2] was < 100 nM throughout.

In the case of `COc1ccccc1-c1cc(C2=CCCN(C(=O)CCn3ccnn3)C2)c(F)c2[nH]c(C(=O)N3CCC(N4CCCCC4)C3)cc12` (stereo not drawn), the 50% inhibitory concentration (IC50) in assay [1] and in assay [2] was 100 to 1000 nM each time.

Turning to `CCn1ncc2c1CN(C(=O)c1cc3c(-c4nccs4)cc(C4=CCCN(C(=O)CCn5ccnn5)C4)c(F)c3[nH]1)C2`, the concentration for half-maximal inhibition (IC50) in assay [1] and in assay [2] was < 100 nM in each case.

On to `CCc1ccncc1-c1cc(C(=O)N2CCN(c3ncc(F)cc3OC)CC2)cc2cc(C3=CCCN(C(=O)CCn4ccnn4)C3)n(CC3CC3)c12`, for which the IC50 in assay [1] and in assay [2] was > 100000 nM throughout.

With `COc1ccccc1-c1cc(C2=CCCN(C(=O)CCn3ccnn3)C2)c(F)c2[nH]c(C(=O)N3CCN(c4cccc(OC)c4OC)CC3)cc12`, the half-inhibitory concentration (IC50) in assay [1] and in assay [2] was < 100 nM throughout.

On to `CCn1ncc2c1CN(C(=O)c1cc3c([C@@H]4CCN(C)C4)cc(C4=CCCN(C(=O)CCn5ccnn5)C4)c(F)c3[nH]1)C2` (single isomer, unassigned), for which the IC50 in assay [1] and in assay [2] was > 100000 nM throughout.

`COc1ccccc1-c1cc(C2=CCCN(C(=O)CCn3ccnn3)C2)c(F)c2[nH]c(C(=O)N3CCC[C@H](C(N)=O)C3)cc12`: the half-inhibitory concentration (IC50) in assay [1] and in assay [2] was < 100 nM each time.

As for `COc1cc(C)ncc1-c1cc(C2=CCCN(C(=O)CCn3ccnn3)C2)c(F)c2[nH]c(C(=O)N3CCN(C4CC4)CC3)cc12`, the IC50 in assay [1] and in assay [2] was < 100 nM in each case.

With `CCc1cc(C)ncc1-c1cc(C2=CCCN(C(=O)CCc3nccs3)C2)c(F)c2[nH]c(C(=O)N3CCN(c4ncc(C)nc4OC)CC3)cc12`, the IC50 in assay [1] and in assay [2] was 100 to 1000 nM throughout.

For the molecule `CCn1ncc2c1CN(C(=O)c1cc3c(-c4cc(F)ccc4F)cc(C4=CCCN(C(=O)CCn5ccnn5)C4)c(F)c3[nH]1)C2`, the IC50 in assay [1] and in assay [2] was < 100 nM throughout.

In the case of `COc1cc(F)cnc1N1CCN(C(=O)c2cc3c(C4=C[C@H](C)O[C@H](C)C4)cc(C4=CCCN(C(=O)CCn5ccnn5)C4)c(F)c3[nH]2)CC1` (relative stereo), the IC50 in assay [1] and in assay [2] was < 100 nM throughout.

With `CCc1nc(C)ccc1-c1cc(C(=O)N2CCN(c3ncc(F)cc3OC)CC2)cc2sc(C3=CCCN(C(=O)CCn4ccnn4)C3)nc12`, the concentration for half-maximal inhibition (IC50) in assay [1] and in assay [2] was < 100 nM throughout.

For the molecule `CCn1ncc2c1CN(C(=O)c1cc3c(-c4ccccc4C#N)cc(C4=CCCN(C(=O)CCn5ccnn5)C4)c(F)c3[nH]1)C2`, the IC50 in assay [1] and in assay [2] was < 100 nM in each case.

For the molecule `CCc1cc(C)ncc1-c1cc(C2=CCCN(C(=O)CCn3ccnn3)C2)c(F)c2[nH]c(C(=O)N3CCN(c4ncc(C)nc4OC)CC3)cc12`, the half-maximal inhibitory concentration (IC50) in assay [1] and in assay [2] was < 100 nM each time.

With `COc1ccc(CN2CCN(C(=O)c3cc4c(-c5ccccc5OC)cc(C5=CCCN(C(=O)CCn6ccnn6)C5)c(F)c4[nH]3)CC2)c(F)c1`, the concentration for half-maximal inhibition (IC50) in assay [1] and in assay [2] was 100 to 1000 nM each time.

Consider `COc1cc(F)cnc1N1CCN(C(=O)c2cc3c(-c4cccc5nc(C)ccc45)cc(C4=CCCN(C(=O)CCn5ccnn5)C4)c(F)c3[nH]2)CC1`, for which the half-maximal inhibitory concentration (IC50) in assay [1] and in assay [2] was < 100 nM throughout.

With `COc1ccncc1-c1cc(C2=CCCN(C(=O)CCn3ccnn3)C2)c(F)c2[nH]c(C(=O)N3CCN(c4nc(C)c(OC)cc4OC)CC3)cc12`, the IC50 in assay [1] and in assay [2] was < 100 nM in each case.

For `CC[C@H](O)CN1CCN(C(=O)c2cc3c(-c4ccccc4OC)cc(C4=CCCN(C(=O)CCn5ccnn5)C4)c(F)c3[nH]2)CC1` (single isomer, unassigned), the IC50 in assay [1] and in assay [2] was < 100 nM each time.

For `CCn1ncc2c1CN(C(=O)c1cc3c(-c4cccnn4)cc(C4=CCCN(C(=O)CCn5ccnn5)C4)c(F)c3[nH]1)C2`, the IC50 in assay [1] and in assay [2] was < 100 nM throughout.

Take `COC[C@@H]1CN(C(=O)c2cc3c(-c4ccccc4OC)cc(C4=CCCN(C(=O)CCn5ccnn5)C4)c(F)c3[nH]2)CCO1`: the IC50 in assay [1] and in assay [2] was < 100 nM throughout.

As for `COc1ccncc1-c1cc([C@H]2CCCN(C(=O)CCn3ccnn3)C2)c(F)c2[nH]c(C(=O)N3CCN(c4ncccc4OC)CC3)cc12` (single isomer, unassigned), the 50% inhibitory concentration (IC50) in assay [1] and in assay [2] was < 100 nM each time.

Regarding `CCc1ccc(-c2cc(C3=CCCN(C(=O)CCn4ccnn4)C3)c(F)c3[nH]c(C(=O)N4CCN(c5nc(C)c(F)cc5OC)CC4)cc23)c(C)n1`, the IC50 in assay [1] and in assay [2] was > 100000 nM each time.

Regarding `COc1ccccc1-c1cc(C2=CCCN(C(=O)CCn3ccnn3)C2)c(F)c2[nH]c(C(=O)N3CCO[C@@H](C)C3)cc12`, the IC50 in assay [1] and in assay [2] was < 100 nM in each case.

In the case of `COc1ccncc1-c1cc(C2=CCCN(C(=O)CCc3nccs3)C2)c(F)c2[nH]c(C(=O)N3CCN(c4ncc(F)cc4OC)CC3)cc12`, the IC50 in assay [1] and in assay [2] was 10000 to 100000 nM throughout.
